{
  "source": "patent US7172905",
  "molecular_target": "glutathione-S-transferase (GST) (Schistosoma japonicum (Blood fluke)) [GST: P08515]",
  "assay": "Kitz-Wilson analysis of the irreversible inactivation of GST: double-reciprocal plot of 1/k_obs (min^-1) against 1/[Inhibitor] (mM^-1), five points with a straight-line fit",
  "data": [
    {"substance": "conjugate of formula (6) (glutathione-benzoquinone conjugate) (peptide)", "values": [
      {"measurement": "Kd", "value": 285, "unit": "µM"}
    ]}
  ]
}
